Antibody variant affinities, Ab-95 light chain, assay 2

Antigen: PDVDLGDISGINAS, a 14-residue peptide of the SARS-CoV-2 spike HR2 region.

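The parent was found by panning a naive human phage display library on the peptide. AAYL52 was designed without a model: most single CDR substitutions and a random sample of double and triple ones. The assay is AlphaSeq: two haploid yeast populations carry antibody and antigen on their surface. Pairs that bind mate more often; barcode pairs of the diploids are counted by sequencing. Scores were corrected for input abundance and mapped to Kd with protein pairs of known affinity run in the same pool. There are three technical replicates.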

Each scFv is VH, a (GGGGS)3 linker, VL, as in the parent Ab-95, and differs from it in the CDRs of the light chain only.
VH: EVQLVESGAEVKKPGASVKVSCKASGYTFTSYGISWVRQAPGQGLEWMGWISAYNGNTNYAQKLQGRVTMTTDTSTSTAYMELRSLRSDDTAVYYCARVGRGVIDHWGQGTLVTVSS
VL: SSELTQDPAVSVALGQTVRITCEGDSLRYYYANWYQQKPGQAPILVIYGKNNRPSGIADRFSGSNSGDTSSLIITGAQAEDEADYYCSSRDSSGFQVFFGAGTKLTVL

Each variant is given by its three light chain CDRs, as the data file delimits them; those of the parent are EGDSLRYYYAN, GKNNRPS, SSRDSSGFQVF. Values are log10 of the apparent Kd in nM; lower means stronger binding. "ND" marks a missing value. The strain was present, yet no cells mated with the target were sequenced in that replicate, which points to weak or no binding.

| CDR-L1 | CDR-L2 | CDR-L3 | log10 Kd (nM) by replicate | empty controls |
|---|---|---|---|---|
| EGDSLRYYYAN | GKNNRPS | SQRDSHGFQVF | 2.25 2.42 2.09 | 1/9 (3.27) |
| EGDSLPYYYAT | GKNNRPS | SSTDSSGFQVF | ND 4.35 ND | 3/9 (4.46) |
| EGDSLRYYYAN | GKNNRPS | SVYDSSGVQVF | ND 3.28 2.90 | 3/9 (4.72) |
| EGDSLRYYYAN | GKNNRPS | VSVDSSGFQMF | 2.35 2.51 2.05 | 1/9 (3.72) |
| EGDSLRYPYAN | GKNNRPS | SSRDSSGFQVF | 2.28 1.88 1.92 | 3/9 (3.76) |
| EGDSLRYYYPN | GKNNRPS | SSRDSSGFQTE | 5.26 3.79 ND | 2/9 (3.55) |
| DGDLLRYYYAN | GKNNRPS | VSRDSSGFQVF | 4.31 ND ND | 3/9 (3.98) |
| EGDSLRYYYAN | GINNRPS | RSRDSDGFQVF | 3.17 2.51 3.91 | 1/9 (3.58) |
| EGDSLRYYYAW | GKNNRPE | SSRDSSGFQVF | ND 4.08 ND | 2/9 (3.56) |
| NGDPLRYYYAL | GKNNRPS | SSRDSSGFQVF | ND ND ND | 3/9 (4.03) |
| EGDSLRYYYAN | GKNNRPS | SEQDSSGFQVF | 2.61 3.21 2.86 | 2/9 (3.72) |
| EGDSIRYYYAN | GKNHRPS | SSRDSCGFQVF | ND 4.04 ND | 5/9 (4.30) |
| EGDSHRYYYAN | GSNNRPS | SSRDSTGFQVF | 2.30 1.68 1.55 | 6/9 (3.84) |
| DGDSLRYYYKN | GQNNRPS | SSRDSSGFQVF | 1.41 1.30 1.22 | 4/9 (3.83) |
| MGDSLRYYMAN | GKNNRPS | SSRDSSIFQVF | 2.15 1.79 1.85 | 3/9 (3.72) |
| EGDSHRYYYAN | GKNIRPS | SSRDSSGFQVF | ND 5.33 3.97 | 2/9 (3.61) |
| EGDSLRYYYAN | GKWNRFS | SSRDSSGGQVF | ND 5.47 ND | 3/9 (3.94) |
| EGDSLRYYYAN | GKNNRPS | SSRDSIGFQVF | 2.19 2.36 1.96 | 1/9 (5.49) |
| EGDSLRYYYAN | GKNNRPS | SLKCSSGFQVF | 1.84 1.93 2.05 | 2/9 (3.53) |
| EGDSLRPYYAN | GKNNRPS | SSRDSVGFVVF | ND 4.97 ND | 1/9 (3.29) |
| EGDSLRRYYAN | GKNNRPS | SSRDYSGGQVF | ND ND ND | 2/9 (4.10) |
| EGDSLRYYYAN | GKNIRPF | SCRDSSGFQVF | 2.39 2.72 3.65 | 2/9 (3.47) |
| EGDSLYYYYAN | GKNTWPS | SSRDSSGFQVF | 4.13 ND 3.39 | 2/9 (3.40) |
| EGDSLRYYYAN | DKNNRGS | SSRDSSKFQVF | ND ND 3.30 | 3/9 (4.29) |
| EGDSLRYYYAN | GKNLRPY | SSRDSSGNQVF | 3.84 2.70 ND | 0/9 |
| EEDSLRYYYAN | GQNNLPS | SSRDSSGFQVF | 4.68 3.93 ND | 4/9 (3.73) |
| EGDSLRYYYAN | GKNNRPS | SSKDSSGFQIF | ND ND ND | 0/9 |
| KGDSLRYYYAN | GKNLRPS | SSRDSSGCQVF | 2.98 2.88 3.53 | 6/9 (4.15) |
| EGDSLRYYYGD | GKNNRPS | SSRASSGFQVF | 4.08 ND 2.35 | 5/9 (3.81) |
| EGWSLRYYYAN | GKNNRPS | MSRDSSGFQVF | 2.08 1.87 1.66 | 4/9 (3.78) |
| EGDSLRYYYAN | GKNNRPL | SSRDSSGFQVC | 2.91 2.63 2.59 | 2/9 (3.51) |

Again, the first 2 entries without any signal:

{"CDR-L1": "NGDPLRYYYAL", "CDR-L2": "GKNNRPS", "CDR-L3": "SSRDSSGFQVF", "log10 Kd (nM) by replicate": "ND ND ND", "empty controls": "3/9 (4.03)"}
{"CDR-L1": "EGDSLRRYYAN", "CDR-L2": "GKNNRPS", "CDR-L3": "SSRDYSGGQVF", "log10 Kd (nM) by replicate": "ND ND ND", "empty controls": "2/9 (4.10)"}

Background: pairings of library AAYL52 with three empty control strains gave a value in 28% of cases (median 3.91, 5th percentile 2.90). Values in that range, when seen in few replicates, are hard to tell from nonspecific mating. Also given: how often the same scFv was detected with the empty control strains, with their mean in brackets.

Reference: Engelhart et al. 2022, doi:10.1038/s41597-022-01779-4. File: FLAb, binding data.